Measurements published in publication PMC12748375, “Insights into cannabinoid receptor 2 (CB2) anterograde trafficking and pharmacological chaperoning” (Cellular and Molecular Life Sciences: CMLS, 2025).

By UniProt entry, the sequences of proteins in these tests, tags left out.
UniProt P34972, whole entry: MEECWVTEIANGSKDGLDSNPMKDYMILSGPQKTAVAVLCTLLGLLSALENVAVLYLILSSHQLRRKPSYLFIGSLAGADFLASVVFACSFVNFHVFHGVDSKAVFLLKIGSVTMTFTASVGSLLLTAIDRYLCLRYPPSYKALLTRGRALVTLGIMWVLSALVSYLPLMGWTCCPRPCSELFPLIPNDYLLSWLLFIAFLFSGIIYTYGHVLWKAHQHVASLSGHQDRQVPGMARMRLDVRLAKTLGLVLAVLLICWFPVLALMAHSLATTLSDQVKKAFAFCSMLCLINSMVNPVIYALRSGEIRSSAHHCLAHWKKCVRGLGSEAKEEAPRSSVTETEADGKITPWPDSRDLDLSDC

Target: T1, hCB2 wt (Homo sapiens, UniProt P34972)
T1 construct: gene CNR2; full-length (63Q), N-terminal HA tag and three thrombin cleavage sites (HA-3TCS), pcDNA5/FRT, expressed in HEK Flp-in-293 cells
Experiment: receptor internalisation, surface HA immunocytochemistry (Method A)
Type: cell-based
Conditions: read-out: Method A: Internalisation (3 h) / CB2 wt / pEC50 (± SEM) (converted)
Excerpt: receptor internalisation, surface HA immunocytochemistry (Method A) on hCB2 wt

Compound CCCCC/C=C\C/C=C\C/C=C\C/C=C\CCCC(=O)NCCO [AEA] has an EC50 of 447 nM.
